Screening data (PubChem)
Shown are actives, neighbours in structure and some others; about 0.78% of the full set was active somewhere.
IL2 activator – activates IL-2 in a cell-based reporter assay; IL-2 activation reporter assay, cell-based qHTS; stimulated with anti-CD3/CD4/CD28 beads; in transgenic mouse T cells; 360,000 compounds, 0.065% hits; activation, % (series mostly up to about 46 µM); AID 652025; in the data active = activation above about 50%; inconclusive = mostly about 30% to 49%; note: 0% is about no effect
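Quantitative HTS in unstimulated transgenic mouse T cells, with memory T cells as non-tolerant control and PMA/ionomycin as tolerance-bypass control. Compound pretreatment lasted 60 minutes before 18 h bead stimulation; EGFP/DsRed fluorescence read.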
RXFP1 agonist – activates the human relaxin receptor RXFP1 | HEK293T-RXFP1 cAMP TR-FRET, 30 min; response scale: percent of porcine relaxin response, buffer zero | 370,000 compounds, 0.3% hits | Potency, µM (titrated, usually from 57.5 µM), without a hit: at the highest dose activation, actives largely listed as activators; note: potency is the fitted concentration of half-maximal effect; % is set by controls: 0 for no effect and ±100 for the full control effect; nearly all actives have a fitted effect of over 60% in size
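cAMP rise read by TR-FRET after 30 min, 37C compound exposure (up to 58 uM) in RXFP1-transfected HEK293 cells with Ro 20174 present. EC50 from Hill-equation fits, with 29 nM porcine relaxin as 100% and buffer as basal.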
PINK1 expr mod – PINK1 expression modulation. PINK1 immunofluorescence, high-content cytometry, 24 h. Potency, µM (series often up to 76.6 µM), for the others: top-dose activation (PINK1 increase), actives largely listed as activators. 410,000 compounds, 0.2% hits; active = well fitted activation curve with a large enough effect; inconclusive = small, poorly fitted or top-dose-only effect; cell line not stated here; note: potency is the fitted concentration of half-maximal effect; % of control where 0% means no effect; nearly all actives have a fitted effect of over 65% in size
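Compound titrations (5 concentrations, 24 h) on a stable cell line; DMSO and CCCP controls. Endpoint: fixed-cell PINK1 immunofluorescence with mitochondrial, cell and nuclear markers, scanned by microplate cytometer.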
RXFP1 antag – antagonists of human relaxin receptor RXFP1. Q9HBX9. HEK293-RXFP1, relaxin-stimulated cAMP HTRF, 30 min; stronger effect = lower value. activity change, negative = inhibition, % at 57.5 µM. 350,000 compounds, 0.59% hits;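 active = activity change of -60% or lower, but not beyond a set lower limit; inconclusive = change between -60% and -40%, or beyond the set limit; inactive = change above -40%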; note: % is set by controls: 0 for no effect and ±100 for the full control effect
TCR activator – activators of T cell receptors; primary human leukocytes, anti-CD3, IL-2 HTRF, 48 h; 330,000 tested, under 10 active; AID 504894; Potency, µM (top dose mostly 9.22 µM), inactives show at the highest dose activation of IL-2 secretion, most hits filed as activators; note: % of control where 0% means no effect
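Primary human leukocytes were stimulated with a-CD3 beads plus compounds for 48 hr without co-stimulation; secreted IL-2 was quantified by HTRF using a-IL-2-K (europium cryptate) and a-IL-2-d2, excited at 320nm with acceptor emission read at 665nm.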
miR-21 reporter – miR-21 reporter, rising signal. 340,000 tested, under 10 active. Potency, µM (highest dose often 38.3 µM), for the others: at the highest dose reporter change, positive = more light. HeLa miR-21 FLuc reporter, luciferase, 48 h. AID 2288; active = well fitted rising curve with a large enough effect; inconclusive = small, poorly fitted or top-dose-only effect; inactive = no such curve, though single readings can be large or run the other way;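 further: % of control where 0% means no effect; miR-21 action dims this reporter so a rising signal means less miR-21 action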
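HeLa cells stably expressing CMV-driven firefly luciferase with a downstream miR-21 binding sequence, endogenously expressing miR-21, were treated with titrations (up to about 40uM final) for 48 hours at 37 degree Celsius. Luciferase luminescence was read after lysis.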
Numbers without * were called inactive; ? = inconclusive; / = not tested or not shown; ! = repeats disagree; [ ] = remark or other dose. Unless noted, calls come from the whole dose curve; as a rule, active = well fitted curve in the direction sought with a large enough effect; inconclusive = small, poorly fitted or top-dose-only effect, or another doubt; inactive = no such curve, though single readings can be large; an effect the other way counts as inactive or inconclusive.

structure	miR-21 reporter	RXFP1 antag	RXFP1 agonist	TCR activator	PINK1 expr mod	IL2 activator
COCC(=O)Nc1cc(C(=O)N2CCc3c(Cl)cccc3C2)c2c(c1)nc(-c1ccncc1)n2C	/	/	/	/	0%	/
Cc1cc(-c2ccc(C(C)C)c(S(=O)(=O)Nc3cc(C)on3)c2)on1	-1%	-65*	1%	2%	1%	-3
Cc1cc(-c2ccc(C)c(S(=O)(=O)Nc3cccc(C)n3)c2)on1	-5%	-12	3%	/	1%	/
Cc1cc2c(cc1C)/C(=N/NC(=O)c1ccccn1)CCC2	-39%	-93*	-1%	0%	10%	0
O=C(NN=C1CCC(=NNC(=O)c2ccccn2)CC1)c1ccccn1	-49%	-13	0%	10%	0%	-1
C=CCc1ccc(OCC(O)COc2ccc(CC=C)cc2OC)c(OC)c1	1%	-69*	-5%	7%	5%	-3
Cc1ccc(N=C2NC(=O)/C(=C/c3cccs3)S2)cc1C	-18%	-77*	0%	-3%[46.1 µM]	0%	0
Cc1cccc(N=C2NC(=O)/C(=C\c3cccs3)S2)c1	10%	-28	0%	-6%[46.1 µM]	3%	0
COc1cc(=O)n2c(c1C(=O)N(C)Cc1nccs1)CCN(Cc1cc(C)cc(C)c1)CC2	/	/	/	/	0%	/
Cc1ccc(NC(=O)c2ccc(C)c(S(=O)(=O)N3CCCCCC3)c2)cc1	-5%	/	-1%	/	3%	/

Continued (four carried over from the part before).
structure	miR-21 reporter	RXFP1 antag	RXFP1 agonist	TCR activator	PINK1 expr mod	IL2 activator
Cc1ccc(N=C2NC(=O)/C(=C/c3cccs3)S2)cc1C	-18%	-77*	0%	-3%[46.1 µM]	0%	0
Cc1cccc(N=C2NC(=O)/C(=C\c3cccs3)S2)c1	10%	-28	0%	-6%[46.1 µM]	3%	0
COc1cc(=O)n2c(c1C(=O)N(C)Cc1nccs1)CCN(Cc1cc(C)cc(C)c1)CC2	/	/	/	/	0%	/
Cc1ccc(NC(=O)c2ccc(C)c(S(=O)(=O)N3CCCCCC3)c2)cc1	-5%	/	-1%	/	3%	/
Cc1ccc(C(=O)Nc2cccc(O)c2)cc1S(=O)(=O)N1CCCCCC1	-34%	-83*!	-1%	5%	1%	-1
CCCNC(=O)C1CCC(Cn2c(=O)c3sccc3n(CC(=O)NCc3cccc(OC)c3OC)c2=O)CC1 (stereo not given)	2%	/	22µM*	/	1%	/
CCCCCNC(=O)C1CCC(Cn2c(=O)c3sccc3n(CC(=O)NCc3cccc(OC)c3OC)c2=O)CC1 (stereo not given)	3%	/	?	/	0%	/
C=CCn1c(=O)/c(=C/c2ccsc2)s/c1=C(\C#N)C(=O)NCCN1CCOCC1	/	-12	/	-7%	8%	60*
Cc1n[nH]c(C)c1N1C(=O)c2cccc3c(N4CCCCCC4)ccc(c23)C1=O	0%	-65*	4%	-3%	1%	?
CCC1(c2ccc(F)cc2)NC(=O)N(CC(=O)NCC(=O)Nc2cccc(C)c2C)C1=O (stereo not given)	/	-79*	-1%	-2%	-1%	0
CCn1c(SCC(=O)NC(=O)NCc2ccco2)nc2sc(C)c(C)c2c1=O	2%	-69*	-3%	-28%	3%	0
CCN1CC=C2C(C1)C(c1ccc(Cl)s1)C(C#N)=C(N)C2(C#N)C#N (stereo not given)	-4%	9	2%	8%	6.3µM*	4
COCc1ccc(CN2CCOc3c(cc(-c4ccc(SC)cc4)cc3OC)C2)o1	/	/	/	/	0%	/
COc1ccc(CN2C(=O)c3cccnc3C2=O)cc1S(=O)(=O)N1CCCCC1C (stereo not given)	2%	28	7.1µM*	-12%	3%	-1
Oc1c(C=Nc2ccccc2)sc(=S)n1Cc1ccccc1	-3%	-27	-1%	-1%	12%	71*
CCn1c(O)c(C=Nc2ccccc2)sc1=S	-50%	4	2%	-5%	19%	4
Cc1c(C(=O)N2CCCCC2c2cccnc2)sc2ncnc(NCc3cccs3)c12 (stereo not given)	/	/	/	/	4%	/
CC1=[N+](C)c2c(ccc3cccnc23)C1(C)C	?	-4	7%	-4%	13µM*	2
Cc1[nH]c2c(ccc3cccnc32)c1C	-19%	-8	-7%	-3%	0%	-2
O=C(Nc1nnc(SCc2ccc(F)cc2)s1)C1Cc2ccccc2CN1C(=O)c1ccco1 (stereo not given)	-12%	-64*	0%	-202%	-1%	-1
O=C(Nc1ccc(NC(=O)c2cccs2)cc1)c1cccc(Br)c1	-42%	-7	4%	/	2%	/
O=C(Nc1cccc(NC(=O)c2cccs2)c1)c1ccc(Br)cc1	6%	-71*	3%	6%	6%	-1
O=C(Oc1ccc2c(c1)OCC2=O)c1ccc(Cl)cc1	0%	-60*	0%	-6%	2%	1
O=C(Cc1ccc(Br)cc1)Nc1ncc([N+](=O)[O-])s1	8%	-18	-4%	-7%	25µM*	0
O=C(COc1ccc(Cl)cc1)Nc1ncc([N+](=O)[O-])s1	19%	-33	0%	8%	16µM*	-4
c1ccc(COc2ccc(OCCCNC3CCCC3)cc2)cc1	-38%	-86*	1%	-3%	26%	-3
O=C(NC1CCCC1)c1ccccc1OCc1ccccc1	2%	-82*	-2%	-1%	0%	0
COc1cc(-c2cc(C)c3c(OC)ccc(OC)c3n2)cc2c1OCCN(C(=O)CCn1ccc(C)n1)C2	/	/	/	/	0%	/
Cc1nc2c3cc(Cl)ccc3n(CCN3CCCCC3)c2s1	21%	-1	3%	/	4µM*	0
CC1CCCC(NCC(O)COC(c2ccc(F)cc2)c2ccc(F)cc2)C1C (stereo not given)	?	-69*	-1%	5%	-2%	-7
CCN(CC)CCN(C(=O)c1ccc2c(c1)CCCC2)c1nc2ccc(F)cc2s1	-16%	?	-3%	4%	?	-1
CCN(CC)CCN(C(=O)c1ccc2c(c1)CCCC2)c1nc2ccc(C)cc2s1	-16%	?	0%	9%	28µM*	-4
CCN(CC)CCN(C(=O)c1ccc2c(c1)CCCC2)c1nc2c(C)cccc2s1	-2%	-11	1%	-1%	45µM*	-3
COc1ccccc1-c1ccnc(-n2ncc(C(=O)NCCc3cccnc3)c2C)n1	/	/	/	/	-1%	/

Reformatted with each value named: entries from further up.
COc1cc(-c2cc(C)c3c(OC)ccc(OC)c3n2)cc2c1OCCN(C(=O)CCn1ccc(C)n1)C2
  miR-21 reporter = / | RXFP1 antag = / | RXFP1 agonist = / | TCR activator = / | PINK1 expr mod = 0% | IL2 activator = /

CCN(CC)CCN(C(=O)c1ccc2c(c1)CCCC2)c1nc2ccc(C)cc2s1
  miR-21 reporter = -16% | RXFP1 antag = ? | RXFP1 agonist = 0% | TCR activator = 9% | PINK1 expr mod = 28µM* | IL2 activator = -4

Carrying on:
structure	miR-21 reporter	RXFP1 antag	RXFP1 agonist	TCR activator	PINK1 expr mod	IL2 activator
CC[n+]1c(/C=C/C=C/N(C(C)=O)c2ccccc2)sc2cc(OC)ccc21	21%	-2	5%	0%[46.1 µM]	?	55*
COc1ccccc1CN1COc2ccc3c(oc(=O)c4ccccc43)c2C1	-7%	-2	18µM*	/	1%	/
COc1ccc(CN2COc3ccc4c(oc(=O)c5ccccc54)c3C2)cc1OC	0%	-1	?	/	1%	/
Cc1ccccc1OCC(=O)Nc1sc(C(=O)Nc2cccc(C)c2C)c(C)c1C#N	-9%	-1	8.9µM*	/	?	0
CNC(=O)[C@@H]1C[C@H](NC2CCCCCCC2)CN1Cc1cccc(OC)c1OC	/	/	/	/	1%	/
COC(=O)[C@@H]1C[C@@H](NC(=O)c2ccc(C(F)(F)F)cc2)CN1Cc1cccc(O)c1	/	/	/	/	0%	/
